From US20050249808A1, “NSAIDs compositions containing tartaric acid” (priority 2001, published 2005) come the findings set out here.

A short description of data set [1]: Oral bioavailability of ibuprofen crushed tablets in control rats. Type of data set: in vivo. To be noted: male, Sprague-Dawley, rat, plasma, 20 mg/kg. As for the experimental part:
(§1) The animal models are Adult male Sprague-Dawley rats with body weight of 250-300 g, and which were cared for in accordance with the principles and guidelines of the Canadian Council of Animal Care. All rats were catheterized in the right jugular vein for sample collection.
(§2) The tablets were crushed gently and small pieces were administered into the stomach via a plastic tube followed by 0.5 mL tap water. […] They had free access to water.

The nature of data set [2]: Oral bioavailability of ibuprofen formulations in vagal-suppressed (propantheline-treated, Pain Model) rats. Type of data set: in vivo. To be noted: male, Sprague-Dawley, rat, plasma, 20 mg/kg. The procedure:
as §1
An animal model having suppressed vagal properties were produced by administering (intraperitoneal injection) to the rats two 20 mg/kg doses of propantheline (test, n=6), an anticholinergic agent with known vagal suppressive properties, the first dose at 2 hours prior to administration of an NSAID, and the second at 1 hour prior.
as §2

Each structure is given as a SMILES string.

For `CC(C)Cc1ccc(C(C)C(=O)O)cc1` (racemic) [ibuprofen, (±)-2-(4-Isobutylphenyl)propionic acid], the AUC(0-t) is 48700 ng·h/mL in data set [1] (Control rats, oral 20 mg/kg ibuprofen as crushed tablets, read-out: AUC (0-1)); 48700 ng·h/mL in data set [1] (control rats, before propantheline treatment effect, oral 20 mg/kg, read-out: AUC(0-1)); 12200 ng·h/mL in data set [2] (propantheline treatment (vagal suppression), oral 20 mg/kg, read-out: AUC(0-1)); 12200 ng·h/mL in data set [2] (vagal-suppressed (Pain Model) rats, oral 20 mg/kg ibuprofen as crushed tablets, read-out: AUC (0-1)); 81800 ng·h/mL in data set [2] (vagal-suppressed (Pain Model) rats, oral 20 mg/kg ibuprofen as crushed tablets, read-out: AUC (0-8)).
